ChEMBL document CHEMBL5506067, “Searching for Synthetic Opioid Rescue Agents: Identification of a Potent Opioid Agonist with Reduced Respiratory Depression” (J Med Chem, 2024)

Amino acid sequences for entries named in this document (tags omitted).
UniProt P35372, whole entry, looked up: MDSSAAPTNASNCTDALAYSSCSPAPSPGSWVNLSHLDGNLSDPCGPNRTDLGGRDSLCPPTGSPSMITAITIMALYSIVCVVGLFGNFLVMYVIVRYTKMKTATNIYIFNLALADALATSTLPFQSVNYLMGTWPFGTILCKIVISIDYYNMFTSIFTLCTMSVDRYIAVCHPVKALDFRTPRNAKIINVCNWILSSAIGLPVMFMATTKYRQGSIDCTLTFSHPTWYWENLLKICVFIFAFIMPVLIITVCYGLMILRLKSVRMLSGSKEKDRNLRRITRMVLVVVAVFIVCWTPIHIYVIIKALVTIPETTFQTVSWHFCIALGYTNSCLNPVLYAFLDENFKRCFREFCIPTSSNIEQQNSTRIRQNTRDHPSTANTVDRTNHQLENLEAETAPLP
UniProt P41143, whole entry, looked up: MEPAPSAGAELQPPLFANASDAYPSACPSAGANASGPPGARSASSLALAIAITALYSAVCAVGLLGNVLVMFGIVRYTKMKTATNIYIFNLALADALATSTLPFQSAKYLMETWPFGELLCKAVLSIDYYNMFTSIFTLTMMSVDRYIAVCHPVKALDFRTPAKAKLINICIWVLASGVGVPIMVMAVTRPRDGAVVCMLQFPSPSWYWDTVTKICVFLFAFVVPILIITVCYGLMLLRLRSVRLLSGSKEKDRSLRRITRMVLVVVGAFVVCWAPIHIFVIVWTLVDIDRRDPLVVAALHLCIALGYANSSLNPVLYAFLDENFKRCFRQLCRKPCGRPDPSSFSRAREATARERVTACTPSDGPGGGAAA

Tests used:
Mu-type opioid receptor = Mu-type opioid receptor (Homo sapiens, UniProt P35372); details: cho-k1
[1] = target: Delta-type opioid receptor (Homo sapiens, UniProt P41143); details: cho-k1

What does the source list for `CN(C)[C@]1(c2ccccc2)CC[C@]2(CC1)OCCc1c3cc(F)ccc3[nH]c12`?
EC50 (Mu-type opioid receptor): 11.3 nM; IC50 [1]: 3.77 nM
